ChEMBL document CHEMBL3085655, “4β-Methyl-5-(3-hydroxyphenyl)morphan opioid agonist and partial agonist derived from a 4β-methyl-5-(3-hydroxyphenyl)morphan pure antagonist” (J Med Chem, 2013)

Protein sequences, listed by entry. Tags and fused reporters are not part of them.
UniProt P35372, whole entry: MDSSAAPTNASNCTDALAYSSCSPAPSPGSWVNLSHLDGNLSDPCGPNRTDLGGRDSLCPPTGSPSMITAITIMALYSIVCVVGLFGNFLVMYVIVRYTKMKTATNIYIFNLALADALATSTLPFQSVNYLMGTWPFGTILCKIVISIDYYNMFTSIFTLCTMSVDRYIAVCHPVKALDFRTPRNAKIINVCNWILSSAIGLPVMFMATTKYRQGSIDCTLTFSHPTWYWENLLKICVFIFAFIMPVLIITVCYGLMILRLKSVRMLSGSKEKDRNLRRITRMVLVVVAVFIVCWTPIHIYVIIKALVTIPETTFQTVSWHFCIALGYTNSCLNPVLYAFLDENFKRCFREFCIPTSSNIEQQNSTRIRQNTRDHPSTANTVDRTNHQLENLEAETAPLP
UniProt P41143, whole entry: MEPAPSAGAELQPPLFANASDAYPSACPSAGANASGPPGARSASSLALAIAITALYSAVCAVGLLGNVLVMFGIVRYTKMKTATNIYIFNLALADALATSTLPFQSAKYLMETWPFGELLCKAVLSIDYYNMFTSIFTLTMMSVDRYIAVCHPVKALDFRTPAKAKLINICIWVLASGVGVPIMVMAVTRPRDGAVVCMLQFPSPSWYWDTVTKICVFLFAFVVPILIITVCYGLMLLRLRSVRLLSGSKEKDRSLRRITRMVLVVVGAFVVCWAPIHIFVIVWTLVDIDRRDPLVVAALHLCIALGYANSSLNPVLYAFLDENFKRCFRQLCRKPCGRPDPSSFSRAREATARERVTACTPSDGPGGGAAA

What was measured:
Mu-type opioid receptor = Mu-type opioid receptor (Homo sapiens, UniProt P35372); experiment: Antagonist activity at human mu opioid receptor expressed in CHO cells by [35S]GTPgammaS binding assay; format: functional, cell-based
[1] = target: T1, Delta-type opioid receptor (Homo sapiens, UniProt P41143); experiment: Intrinsic agonist activity at human delta opioid receptor expressed in CHO cells by [35S]GTPgammaS binding assay; format: functional, cell-based
[2] = target: T1, Delta-type opioid receptor; experiment: Displacement of [3H]DADLE from human delta opioid receptor expressed in CHO cells; format: cell-based
In short: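 Competition radioligand binding at the human receptors, run at the Psychoactive Drug Screening Program. Radioligands were [3H]DAMGO (MOR), [3H]DADLE (DOR) and [3H]U69,593 (KOR). Radioligand Kd determined by homologous competition binding with the receptor-specific radioligand. Ki values reported.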

C[C@@H]1CN(CCCc2ccccc2)[C@@H]2CCC[C@]1(c1cccc(O)c1)C2
Ke (Mu-type opioid receptor): 1.9 nM | Agonist potency [1]: > 5000 nM

C[C@@H]1CN(CCCc2ccccc2)[C@H]2C[C@H](NCC3CC3)C[C@]1(c1cccc(O)c1)C2
Ki [2]: 43.2 nM | Agonist potency [1]: > 5000 nM
